Laboratory results taken from patent US6448031.

Legend:
[1] = tested on: H-Ser-Tyr-D-Ser(tBu)-Leu-Arg-Pro-NHEt
[2] = tested on: H-D-Ser-Tyr-D-Ser(tBu)-Leu-Arg-Pro-NHEt

Work on “immobilized chymotrypsin (agarose carrier, 2000 U/g)” yielded a Yield (%) of enzymatic peptide coupling after two hours, HPLC peak area; co-substrate pGlu-His-Trp-OMe [1] of 78.8%, a Yield (%) of enzymatic peptide coupling after two hours, HPLC peak area; co-substrate pGlu-His-Trp-OMe [2] of 0% and a Yield (%) of enzymatic peptide coupling after two hours, HPLC peak area; co-substrate H-Ser-Tyr-D-Ser(tBu)-Leu-Arg-Pro-NHEt (pGlu-His-Trp-OMe) of 78.8%. For the same substance, the Yield (%) of enzymatic peptide coupling after two hours, HPLC peak area; co-substrate H-Ser-Tyr-D-Ser(tBu)-Leu-Arg-Pro-NHEt (pGlu-His-D-Trp-OMe) was 0% and the Yield (%) of enzymatic peptide coupling after two hours, HPLC peak area; co-substrate H-Ser-Tyr-D-Ser(tBu)-Leu-Arg-Pro-NHEt (pGlu-D-His-Trp-OMe) was 7.8%.
